Results: ChEMBL document CHEMBL1126779, “Antagonism of 1-(2,5-dimethoxy-4-methylphenyl)-2-aminopropane stimulus with a newly identified 5-HT2- versus 5-HT1C-selective antagonist” (J Med Chem, 1993)

Target: Serotonin 2 (5-HT2) receptor (Rattus norvegicus) (UniProt P30994+P08909+P14842)
Experiment: Selectivity ratio, Ki against 5-HT1C versus 5-HT2
Format: protein assay
In short: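 Rat frontal cortex homogenate (male Sprague-Dawley) was washed and preincubated 15 min at 37 °C in 50 mM Tris HCl, 0.5 mM EDTA, 10 mM MgCl2, pH 7.4, with 0.1% ascorbate and 10^-6 M pargyline. […] Nonspecific binding was set with 1.0 µM mianserin. Tubes ran 15 min at 37 °C in triplicate before filtration.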

Work on `O=C(CCCN1CCC(Nc2ccccc2)CC1)c1ccc(F)cc1` yielded a Ratio of 65.
